Values quoted from earlier work as cited in US20260382616A1, “TREATMENT METHODS FOR SUBJECTS WITH NON-SMALL CELL LUNG CANCER HAVING AN ABERRATION IN EGFR” (published 2026).

Settings: cited from earlier work; for Diarrhea: any grade, comparison with other ex20ins-directed therapies

C=CC(=O)Nc1cc(Nc2ncc(C(=O)OC(C)C)c(-c3cn(C)c4ccccc34)n2)c(OC)cc1N(C)CCN(C)C
Diarrhea, grade ≥3 (160 mg): 16% | Rash (160 mg): 45% | TRAEs leading to dose reduction (160 mg): 21 % of patients | TRAEs leading to treatment discontinuation (160 mg): 10 % of patients | Grade ≥3 diarrhea (human, in vivo): over 20 % of patients | Adverse effects caused (patients, background): frequent rash and diarrhea

C=CC(=O)Nc1cc(Nc2nccc(-c3cn(C)c4ccccc34)n2)c(OC)cc1N(C)CCN(C)C
Acneiform rash, any grade (160 mg daily): 38% | Fatigue, any grade (160 mg daily): 67% | Grade 3 gastrointestinal or dermatologic toxicities (160 mg daily): no cases

C=CC(=O)Nc1cc(Nc2nccc(Nc3cc(Cl)c(F)cc3C(C)(C)O)n2)c(OC)cc1N1CC[C@@H](N(C)C)C1
Diarrhea: 54 % of patients

C=CC(=O)N1CCC(Oc2cc3c(Nc4ccc(Cl)c(Cl)c4F)ncnc3cc2OC)CC1
Diarrhea: 92 % of patients | Grade ≥3 diarrhea (human, in vivo): over 20 % of patients | Skin and gastrointestinal toxicities (human, in vivo): high rates of skin and gastrointestinal toxicities | Dose reduction (starting dose 16 mg daily): 65 % of patients
